Experiment: Sol content and degree of swelling of elastomer discs in dichloromethane
Type: physicochemical

poly(1,10 decane diol-co-tricarballylate) [PDTC]
The sol content (S) %: 5.95 ± 1.69%

— US9422396B2, “Biodegradable elastomers prepared by the condensation of an organic di-, tri- or tetra-carboxylic acid and an organic diol” (QATAR UNIVERSITY, priority 2007, dated 2016)
